Reference: patent US12209122

The chains behind the UniProt entries cited, without tags or fusion partners. Residues count along the entry.
UniProt P01375, 77-233 limits assumed: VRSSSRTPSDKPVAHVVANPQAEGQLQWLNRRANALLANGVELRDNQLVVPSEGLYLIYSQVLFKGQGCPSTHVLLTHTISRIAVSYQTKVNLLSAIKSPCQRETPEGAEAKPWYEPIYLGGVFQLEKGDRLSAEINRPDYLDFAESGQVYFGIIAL

Target: recombinant human TNFα (Peprotech, Cat. No. 300-01) (human, UniProt P01375 77-233)
Assay: cell-based or functional assay

L929 assay, IC50 of neutralization of TNFα-induced apoptosis (100 pM TNFα): 36.2 ng/ml
B1: infliximab (antibody, V domains shown)
VH: EVKLEESGGGLVQPGGSMKLSCVASGFIFSNHWMNWVRQSPEKGLEWVAEIRSKSINSATHYAESVKGRFTISRDDSKSAVYLQMTDLRTEDTGVYYCSRNYYGSTYDYWGQGTTLTVSS
VL: DILLTQSPAILSVSPGERVSFSCRASQFVGSSIHWYQQRTNGSPRLLIKYASESMSGIPSRFSGSGSGTDFTLSINTVESEDIADYYCQQSHSWPFTFGSGTNLEVKR
